Our source for the solubility values is US11976065B2 (CELISTA PHARMACEUTICALS LLC, priority 2020, dated 2024).

A short description of this data set: physchem. The settings on record: water, thermodynamic from solid.

Values after ≈ are worked out from the molar mass of the structure shown.

The term solubility denotes the dissolved amount per volume that the medium holds. Low values mean little dissolved substance, high ones much dissolved substance. Regarding `CC(C)Cn1cnc2c(N)nc3ccccc3c21` [Imiquimod, 1-(2-methylpropyl)-1H-imidazo[4,5-c]quinolin-4-amine], the concentration in solution (solubility) came to 2.2 µg/mL (≈ 9.15 µM).
